“Also recorded” adds a separate entry of the source.
System: DPP4 mRNA
Details: in vivo, po

N[C@@H](CC(=O)N1CCn2c(nnc2C(F)(F)F)C1)Cc1cc(F)c(F)cc1F [sitagliptin]
Endometrial DPP4 mRNA level normalized to L19: no evidence that oral sitagliptin (100 mg daily) for 3 cycles inhibits endometrial DPP4 expression or activity; also recorded: not significantly different

From patent US12650432B2 (dated 2026)
